Laboratory results taken from paper PMC4468146.

Target: human glucagon receptor (GCGR), C-terminal Flag-tagged (human) (UniProt P47871)

intracellular cAMP (ELISA) in GCGR-Flag transfected CHO cells, glucagon 0.001 nM to 100 nM for 30 minutes: 0.41 nM
Substance: glucagon (ligand)
